Each structure is given as a SMILES string.

Amino acid sequences for entries named in this document (tags omitted).
UniProt P31645, whole entry: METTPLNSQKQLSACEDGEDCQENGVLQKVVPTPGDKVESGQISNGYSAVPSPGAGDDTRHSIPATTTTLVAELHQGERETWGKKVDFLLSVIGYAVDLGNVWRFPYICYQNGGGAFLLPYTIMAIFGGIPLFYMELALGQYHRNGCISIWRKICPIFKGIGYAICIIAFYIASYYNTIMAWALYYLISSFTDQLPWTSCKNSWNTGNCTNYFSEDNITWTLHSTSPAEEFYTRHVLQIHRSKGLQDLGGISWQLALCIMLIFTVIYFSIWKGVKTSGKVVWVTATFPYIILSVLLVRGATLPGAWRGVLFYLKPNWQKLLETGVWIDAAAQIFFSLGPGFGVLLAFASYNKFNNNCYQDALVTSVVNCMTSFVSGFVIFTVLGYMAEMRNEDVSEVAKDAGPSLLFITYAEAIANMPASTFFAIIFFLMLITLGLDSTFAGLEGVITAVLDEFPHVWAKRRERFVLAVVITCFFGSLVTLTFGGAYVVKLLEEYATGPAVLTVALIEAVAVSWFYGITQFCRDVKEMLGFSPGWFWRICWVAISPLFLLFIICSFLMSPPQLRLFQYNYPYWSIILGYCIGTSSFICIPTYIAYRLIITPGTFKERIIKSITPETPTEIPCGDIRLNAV

For this assay, the target named is Sodium-dependent serotonin transporter (Homo sapiens, UniProt P31645). The experiment in a line: Displacement of [3H]paroxetine from serotonin transporter. On the technique in general: In a radioligand displacement assay an active substance lowers the binding of a labelled ligand.

As a reminder, the Ki is the dissociation constant of the complex between target and ligand, obtained from inhibition or displacement. Higher therefore signals a looser hold on the target. As to `COC(=O)[C@H]1[C@@H](c2ccccc2)C[C@@H]2CC[C@H]1N2C`, the Ki stood at 182 nM.

Source of the values: ChEMBL document CHEMBL1150295, “Synthesis and receptor binding properties of 2beta-alkynyl and 2beta-(1,2,3-triazol)substituted 3beta-(substituted phenyl)tropane derivatives” (Bioorg Med Chem, 2008).
